# Results published in ChEMBL document CHEMBL1131412.
# Sequences of proteins named here, by UniProt entry; tags and fusion partners are left off.
# UniProt P21917, whole entry: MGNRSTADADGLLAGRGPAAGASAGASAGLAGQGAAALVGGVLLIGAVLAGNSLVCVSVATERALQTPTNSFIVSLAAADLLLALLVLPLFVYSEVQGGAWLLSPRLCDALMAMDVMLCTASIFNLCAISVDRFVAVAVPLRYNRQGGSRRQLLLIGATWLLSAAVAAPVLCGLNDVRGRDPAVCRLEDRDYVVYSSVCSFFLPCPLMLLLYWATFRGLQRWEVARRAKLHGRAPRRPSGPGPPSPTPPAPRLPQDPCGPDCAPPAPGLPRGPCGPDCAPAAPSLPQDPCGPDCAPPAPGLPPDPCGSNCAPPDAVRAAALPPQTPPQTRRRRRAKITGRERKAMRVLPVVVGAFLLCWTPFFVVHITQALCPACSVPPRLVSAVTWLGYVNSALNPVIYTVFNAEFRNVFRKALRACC
# Biological target: D(4) dopamine receptor (Homo sapiens, UniProt P21917)
# Assay: In vitro binding affinity at human cloned Dopamine receptor D4.2 by [3H]YM-09151-2 displacement.
smiles,measurement,value
COc1ccc2c(c1)CC(NC(=O)CCN1CCN(c3ccccc3OC)CC1)CC2 (stereo unspecified),IC50,0.03 µM
